# Experiment: in vivo
# Settings: mouse, oral, mice died within a week, probit method
# Procedure: ddY male mice (body weight about 23 g) were fasted overnight, and the test compound dissolved or suspended in a 1% gum arabic solution administered orally. From the number of mice died within a week, the LD50 value was calculated by the probit method.
smiles,measurement,value
"O=C([O-])c1ccccc1Nc1cc(Cl)ccc1C(=O)[O-].[Na+].[Na+] [Lobenzarit disodium, N-(2-carboxyphenyl)-4-chloroanthranilic acid disodium salt]",LD50 at 168 h,593 mg/kg

# Reference: patent US4910211A, “Novel benzothiazole and antirheumatic agent comprising it as an active ingredient” (Kanebo Ltd., priority 1987, dated 1990)
